## scFv variants of Ab-14 (light chain) against a SARS-CoV-2 spike peptide

Target: peptide PDVDLGDISGINAS, taken from heptad repeat 2 (HR2) of SARS-CoV-2 spike.

Each scFv is VH, a (GGGGS)3 linker, VL, as in the parent Ab-14, and differs from it in the CDRs of the light chain only.
VH: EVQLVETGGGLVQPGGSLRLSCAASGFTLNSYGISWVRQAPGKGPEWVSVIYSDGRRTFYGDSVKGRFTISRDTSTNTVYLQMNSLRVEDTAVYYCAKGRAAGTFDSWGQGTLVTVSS
VL: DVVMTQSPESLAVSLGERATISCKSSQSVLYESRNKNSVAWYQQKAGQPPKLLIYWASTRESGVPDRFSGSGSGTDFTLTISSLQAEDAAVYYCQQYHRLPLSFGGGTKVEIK

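Phage display of a naive human antibody library on the peptide gave the parent. Designed CDR sequences, proposed from the first random library and measured here. Their group label is 14L_GP_Gibbs (GP: Gaussian process model; Gibbs: Gibbs sampling; a sequence that several methods proposed may carry one label only). In AlphaSeq, yeast of one mating type display the scFv and yeast of the other type display the target. Pairs that bind mate more often; barcode pairs of the diploids are counted by sequencing. The ratio of observed to expected reads was calibrated, replicate by replicate, on BCL2-family standards whose Kd was known from biolayer interferometry. The assay was run in six technical replicates.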

Positions count from residue 1 of the parent VL; S25V puts V in place of S. Values are log10 of the apparent Kd in nM; lower means stronger binding. "ND" marks a missing value. The strain was present, yet no cells mated with the target were sequenced in that replicate, which points to weak or no binding. The parent sequence was in this pool as ten entries: three were never detected, three once, and four in most replicates, with averages from 0.34 to 2.37. Background: pairings of all light chain designs with three empty control strains gave a value in 4% of cases (median 2.64, 5th percentile 1.59). Values in that range, when seen in few replicates, are hard to tell from nonspecific mating. Also given: how often the same scFv was detected with the empty control strains, with their mean in brackets. The authors averaged sequences with at least three values out of six and counted those with two or fewer as poor binders. A sequence measured in both rounds can read differently, since the two assays cover different ranges.

| changes | log10 Kd, replicates | control signals |
|---|---|---|
| S25V+V29D+S33Q+N35M+N37Q+W56N+T59E | 0.32 0.46 0.25 0.20 0.17 0.28 | 1 of 18 (2.30) |
| S25L+V29M+S33E+S38N+W56S+T59H+S62W | -0.11 -0.29 -0.41 -0.41 -0.75 -0.23 | 1 of 18 (3.28) |
| S25L+S26Q+S28L+W56D+E61F+Q96A | 2.91 1.46 1.64 1.72 1.34 1.22 | 2 of 18 (2.82) |
| S25L+S26P+V29M+L30Q+S38N+W56S+T59C | ND ND 1.84 1.75 ND ND | 0 of 18 |
| S25L+V29E+S33E+K36D+W56Q+T59Q+Q96D | 3.41 0.95 1.62 2.49 ND 1.89 | 0 of 18 |
| S25V+S26D+Q27S+S28A+V29F+S33Q+W56Q+T59Q | -0.22 -0.31 -0.64 -0.10 -0.09 -0.23 | 0 of 18 |
| S25L+S26Q+Q27S+S28L+V29E+L30Q+S38N+W56S+E61Y | 0.40 0.20 -0.12 0.29 -0.07 0.44 | 6 of 18 (2.85) |
| K24H+S25F+S26Q+L30P+W56N+T59L+E61F | 0.57 0.57 0.12 0.39 0.70 0.47 | 2 of 18 (2.10) |
| S25V+S26D+Q27M+V29Q+W56N+T59L+E61C | 0.29 0.04 0.17 0.02 0.04 0.24 | 1 of 18 (3.26) |
| S25L+S26M+V29M+L30G+S33Q+K36F+W56Q+T59Q+E61S+S62Q | ND ND ND ND ND ND | 0 of 18 |
| S25L+S26Y+Q27P+V29E+L30W+N35M+K36C+W56N+T59V+S62Q | 0.97 0.69 0.21 1.09 0.19 0.85 | 1 of 18 (2.08) |
| S25F+S26V+V29W+L30G+S38A+W56H+T59Q+E61C+S62D | 0.34 0.33 0.01 0.28 0.13 0.13 | 2 of 18 (1.93) |
| Q27C+V29E+L30R+E32D+R34P+K36S+W56N+S62M | 0.14 0.36 0.19 -0.03 0.29 0.47 | 0 of 18 |
| S25F+L30D+S33Q+N35Q+W56N+E61M | 0.75 0.64 0.91 0.60 0.34 1.10 | 1 of 18 (2.01) |
| S25L+S26M+V29S+W56N+S62W | 0.22 0.12 -0.04 0.03 0.19 0.08 | 3 of 18 (3.91) |
| S26F+Q27F+V29E+L30P+Y31G+W56E | 1.23 1.19 1.17 0.92 1.06 1.56 | 1 of 18 (2.43) |
| S25I+S26F+V29E+N35Q+W56N+T59D+E61M | 0.77 0.72 0.66 0.57 0.87 0.97 | 1 of 18 (3.36) |
| S25L+S26D+Q27F+S28L+V29G+L30P+S33Q+W56S | 0.49 0.61 0.59 0.29 0.54 0.71 | 0 of 18 |
| S25L+S26Q+Q27N+V29F+N35Q+K36S+S38N+W56E+T59Q | 0.55 0.24 0.35 0.24 0.21 0.39 | 0 of 18 |
| S25M+V29A+Y31M+K36G+W56N+T59K | -0.23 -0.14 -0.20 -0.52 -0.15 0.14 | 1 of 18 (2.76) |
| S25L+S26P+S28W+V29D+S33G+W56S+E61F+S62D | 0.07 0.11 -0.03 -0.07 -0.28 0.16 | 1 of 18 (2.40) |
| S25L+V29W+E32L+W56N+T59Q+S62D | -0.14 -0.28 -0.23 -0.40 -0.42 -0.09 | 1 of 18 (2.11) |
| Q27C+Y31Q+S33D+K36S+W56N+S62L | 1.15 0.93 0.84 0.80 0.71 1.03 | 1 of 18 (2.78) |
| L30E+Y31M+S38N+W56D+T59Q | 0.15 0.14 -0.08 0.17 -0.01 0.20 | 0 of 18 |
| K24L+S25M+V29E+Y31L+K36H+W56D+E61M+S62D | 0.10 -0.02 -0.21 -0.26 -0.22 -0.14 | 0 of 18 |
| S25L+S26E+Q27P+V29E+L30W+N35M+K36C+W56N+T59V | 0.50 0.50 0.31 0.41 0.44 0.50 | 4 of 18 (3.35) |
| S25W+S26M+L30D+Y31Q+W56H+E61M+S62Q | 1.08 1.28 1.15 1.06 1.10 1.63 | 1 of 18 (3.23) |
| S25L+V29D+L30G+W56H+T59C+E61C | 1.22 1.09 1.94 1.21 1.16 1.71 | 0 of 18 |
| S25M+S26A+S28G+V29W+L30E+W56N+T59Q | 0.07 -0.01 -0.11 -0.36 -0.15 -0.12 | 0 of 18 |
| S25V+S26D+V29K+Y31Q+E32G+S33Q+W56E+S62R | 0.07 -0.01 -0.11 -0.18 -0.06 0.06 | 2 of 18 (3.17) |
| K24V+S25L+Q27A+V29E+S33D+N35P+W56N+E61M | 0.22 0.26 0.16 -0.09 0.14 0.13 | 2 of 18 (3.07) |
| S25L+S26P+V29M+L30Q+W56S | -0.03 -0.02 -0.16 -0.31 -0.17 0.06 | 0 of 18 |
| S25V+Y31Q+E32Q+K36S+W56E+T59Q+S62E | -0.22 -0.31 -0.38 -0.36 -0.48 -0.16 | 2 of 18 (2.58) |
| S25M+S28E+L30W+Y31L+K36D+W56M+T59C+S62D | 2.19 1.40 1.44 1.72 1.50 1.61 | 0 of 18 |

For reference, 4 entries of the list once more:

{"changes": "S25V+Y31Q+E32Q+K36S+W56E+T59Q+S62E", "log10 Kd, replicates": "-0.22 -0.31 -0.38 -0.36 -0.48 -0.16", "control signals": "2 of 18 (2.58)"}
{"changes": "K24H+S25F+S26Q+L30P+W56N+T59L+E61F", "log10 Kd, replicates": "0.57 0.57 0.12 0.39 0.70 0.47", "control signals": "2 of 18 (2.10)"}
{"changes": "S25V+S26D+Q27M+V29Q+W56N+T59L+E61C", "log10 Kd, replicates": "0.29 0.04 0.17 0.02 0.04 0.24", "control signals": "1 of 18 (3.26)"}
{"changes": "S25L+S26Y+Q27P+V29E+L30W+N35M+K36C+W56N+T59V+S62Q", "log10 Kd, replicates": "0.97 0.69 0.21 1.09 0.19 0.85", "control signals": "1 of 18 (2.08)"}

From the AlphaSeq antibody data of Li et al. 2023 (doi:10.1038/s41467-023-39022-2), copy in the FLAb collection.